Here are results for one substance from patent publication US20070172469A1, “Methods For Inhibiting Viral Replication In Vivo” (priority 2002, published 2007).

For the data set, the system named is AVA5 cells. Description: Toxicity in AVA5 cells, neutral red dye uptake. Particulars: 3 days.

Where only a bound is given, the exact number is not on record here.

In turn, alpha interferon registered a CC50 of more than 10000 IU/ml.
